# PubChem BioAssay AID492992 (Johns Hopkins Ion Channel Center, 2010)
# Sequences of proteins named here, by UniProt entry; tags and fusion partners are left off.
# UniProt Q9NPC2, whole entry: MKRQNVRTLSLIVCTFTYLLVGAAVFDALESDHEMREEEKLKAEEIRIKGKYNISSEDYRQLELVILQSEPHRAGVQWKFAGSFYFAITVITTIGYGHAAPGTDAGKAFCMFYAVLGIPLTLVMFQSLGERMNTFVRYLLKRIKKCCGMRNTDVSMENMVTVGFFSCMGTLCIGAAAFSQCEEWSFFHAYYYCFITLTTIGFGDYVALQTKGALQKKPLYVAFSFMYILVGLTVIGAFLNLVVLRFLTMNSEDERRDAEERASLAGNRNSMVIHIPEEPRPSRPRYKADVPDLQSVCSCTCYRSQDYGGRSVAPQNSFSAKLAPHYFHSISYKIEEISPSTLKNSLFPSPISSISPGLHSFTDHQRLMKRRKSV
# The entries are a selection whose mix differs from that of the whole data set. Activity calls are given as the source filed them.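 The calls were made as follows: active = thallium signal inhibited by more than 5 SD of the compound-free buffer control wells, on both duplicate plates; inactive = the rest.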
# Molecular target: Potassium channel subfamily K member 9 (Homo sapiens) (UniProt Q9NPC2)
# Test: KCNK9 potassium channel inhibitors, confirmation, HEK293 cells, thallium flux, duplicate (AID 492992);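 also: 0% = assay buffer control wells without compound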
# Settings: FluxOR thallium flux fluorescence, at 10 µM, active compounds read high
row,Compound,inhibition
1,COc1cccc(C(=O)N(c2cc(C)cc(C)c2)C2CCN(C(=O)OC(C)(C)C)CC2)c1,active: 39.5%
2,CC(C)(C)OC(=O)N1CCC(N(C(=O)c2ccccc2)c2ccc(Cl)cc2)CC1,active: 66%
3,CC(C)(C)OC(=O)N1CCC(N(C(=O)c2ccccc2)c2ccc(F)cc2)CC1,active: 76%
4,Cc1cc(C)cc(N(C(=O)c2ccccc2)C2CCN(C(=O)OC(C)(C)C)CC2)c1,active: 58.5%
